From patent US9492510B2, “Composition and method for inhibiting tumor cell growth” (St. Jude Children's Research Hospital, priority 2006, dated 2016)

What was measured:
[1] = biological target: T1, hCE1 variant hCE1m6 (hCE1mut6; L362M, M363L, K459R, F448Y, Q449R, L358I, S364G, Q362 insertion), SEQ ID NO:3 (Homo sapiens, UniProt P23141, F449Y/K460R/L358I/L363M/M364L/Q450R/S365G); test: Kinetics of CPT-11 hydrolysis by purified hCE1m6; type: biochemical; conditions: hCE1m6 vs hCE1
T1 sequence (P23141 18-567 L358I/L363M/M364L/S365G/F449Y/Q450R/K460R): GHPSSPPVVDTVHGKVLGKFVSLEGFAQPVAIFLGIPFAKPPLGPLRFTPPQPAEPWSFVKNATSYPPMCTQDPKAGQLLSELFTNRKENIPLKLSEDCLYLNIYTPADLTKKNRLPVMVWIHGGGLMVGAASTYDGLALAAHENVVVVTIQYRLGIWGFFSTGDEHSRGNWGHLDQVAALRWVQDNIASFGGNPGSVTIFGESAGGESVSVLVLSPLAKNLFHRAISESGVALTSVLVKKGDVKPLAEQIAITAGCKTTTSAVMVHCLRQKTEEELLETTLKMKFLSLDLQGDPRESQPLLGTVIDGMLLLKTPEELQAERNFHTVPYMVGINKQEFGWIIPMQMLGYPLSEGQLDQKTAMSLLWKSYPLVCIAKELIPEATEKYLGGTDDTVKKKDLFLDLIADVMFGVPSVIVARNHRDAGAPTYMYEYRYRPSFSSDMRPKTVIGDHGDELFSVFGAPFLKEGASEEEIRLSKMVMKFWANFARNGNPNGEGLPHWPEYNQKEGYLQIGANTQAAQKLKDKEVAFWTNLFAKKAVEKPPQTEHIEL
Text: These experiments determined the Km, Vmax, kcat and kcat/Km values for the different enzymes.
Protein Purification. […] For hiCE, an alternative purification procedure was developed using DEAE chromatography and elution with a pH/salt gradient.
Determination of Kinetic Parameters for Substrate Hydrolysis.

U373MG cells [2] = conditions: media from secreted hCE1mut6 cells (pIRESmut6C) vs control (pIRESneo)
U373MG cells [3] = test: Growth inhibition of U373MG cells expressing intracellular or secreted hCE1mut6 by CPT-11; type: cell-based, human; conditions: cells expressing hCE1mut6 (either form)
Method: Experiments were also performed to determine whether cells expressing a secreted form of hCElm6 (SEQ ID NO:16) produced media that had CE activity.
Growth Inhibition Assays.

CCc1c2c(nc3ccc(OC(=O)N4CCC(N5CCCCC5)CC4)cc13)-c1cc3c(c(=O)n1C2)COC(=O)[C@]3(O)CC [CPT-11, 7-ethyl-10-[4-(1-piperidino)-1-piperidino]carbonyloxycamptothecin]
more efficient at CPT-11 hydrolysis as compared to hCE1 [1]: ~70 fold | difference in the IC50 values (U373MG cells [2]): approximately 150 fold | reduction in the IC50 value for CPT-11 (U373MG cells [3]): ~130 fold
